CycPeptMPDB entries from one study

Collected by the curators of CycPeptMPDB (Li et al. 2023) from Wang et al. 2021, doi:10.1021/acs.jmedchem.1c00775.

PAMPA measures passive passage through an artificial lipid membrane. Permeability is given as log10 of P in cm/s; higher (less negative) is more permeable. Entries marked < or ≤ lay at or below the stated limit.

PAMPA (log10 cm/s)	compound
-4.70	CC(C)C[C@@H]1NC(=O)[C@H](Cc2ccccc2)N(C)C(=O)[C@H]2CCCN2C(=O)[C@H](CC(C)C)NC(=O)[C@H](C)N(C)C(=O)[C@H]([C@@H](C)O)NC(=O)[C@H](Cc2ccccc2)N(C)C(=O)[C@H]2CCCN2C(=O)[C@H](CC(C)C)NC(=O)[C@H](C)N(C)C1=O
< -6.50	CC(C)C[C@@H]1NC(=O)[C@H]([C@@H](C)O)N(C)C(=O)[C@H]2CCCN2C(=O)[C@H](CC(C)C)NC(=O)[C@H]([C@@H](C)O)N(C)C(=O)[C@H](CC(C)C)NC(=O)[C@H]([C@@H](C)O)N(C)C(=O)[C@H]2CCCN2C(=O)[C@H](CC(C)C)NC(=O)[C@H]([C@@H](C)O)N(C)C1=O
-5.10	CC(C)C[C@@H]1NC(=O)[C@H]([C@@H](C)O)N(C)C(=O)[C@H]2CCCN2C(=O)[C@H](CC(C)C)NC(=O)[C@H](C)N(C)C(=O)[C@H](CC(C)C)NC(=O)[C@H]([C@@H](C)O)N(C)C(=O)[C@H]2CCCN2C(=O)[C@H](CC(C)C)NC(=O)[C@H](C)N(C)C1=O
< -6.90	CC(C)C[C@@H]1NC(=O)[C@H](C)N(C)C(=O)[C@H]2C[C@H](O)CN2C(=O)[C@H](CC(C)C)NC(=O)[C@H](C)N(C)C(=O)[C@H](CC(C)C)NC(=O)[C@H](C)N(C)C(=O)[C@H]2CCCN2C(=O)[C@H](CC(C)C)NC(=O)[C@H](C)N(C)C1=O
-5.80	CC(C)C[C@@H]1NC(=O)[C@H](C)N(C)C(=O)[C@H]2CCCN2C(=O)[C@H](CC(C)C)NC(=O)[C@H](C)N(C)C(=O)[C@H](CC(C)C)NC(=O)[C@H](C)N(C)C(=O)[C@H]2CCCN2C(=O)[C@H](CC(C)C)NC(=O)[C@H]([C@@H](C)O)N(C)C1=O
-6.60	CC(C)C[C@@H]1NC(=O)[C@@H]2CCCN2C(=O)[C@H]2CCCN2C(=O)[C@H](CC(C)C)NC(=O)[C@H](C)N(C)C(=O)[C@H](CC(C)C)NC(=O)[C@@H]2CCCN2C(=O)[C@H]2CCCN2C(=O)[C@H](CC(C)C)NC(=O)[C@H](C)N(C)C1=O
-4.60	CC(C)C[C@@H]1NC(=O)[C@H](C)N(C)C(=O)[C@H]2CCCN2C(=O)[C@H](CC(C)C)NC(=O)[C@H](C)N(C)C(=O)[C@H](CC(C)C)NC(=O)[C@H](C)N(C)C(=O)[C@H]2CCCN2C(=O)[C@H](CC(C)C)NC(=O)[C@H](C)N(C)C1=O
-5.00	CC(C)C[C@@H]1NC(=O)[C@H](Cc2ccccc2)N(C)C(=O)[C@H]2CCCN2C(=O)[C@H](CC(C)C)NC(=O)[C@H](C)N(C)C(=O)[C@H](CC(C)C)NC(=O)[C@H](Cc2ccccc2)N(C)C(=O)[C@H]2CCCN2C(=O)[C@H](CC(C)C)NC(=O)[C@H]([C@@H](C)O)N(C)C1=O
-6.70	CC(C)C[C@@H]1NC(=O)[C@H](C)N(C)C(=O)[C@H](CC(C)C)NC(=O)[C@@H]2CCCN2C(=O)CN(C)C(=O)[C@H](CC(C)C)NC(=O)[C@H](C)N(C)C(=O)[C@H](CC(C)C)NC(=O)[C@@H]2CCCN2C(=O)CN(C)C1=O
-4.60	CC(C)C[C@@H]1NC(=O)[C@H](C)N(C)C(=O)[C@H](CC(C)C)NC(=O)[C@@H]2CCCN2C(=O)[C@H]2CCCN2C(=O)[C@H](CC(C)C)NC(=O)[C@H](C)N(C)C(=O)[C@H](CC(C)C)NC(=O)[C@H](C(C)C)N(C)C(=O)[C@@H](C)N(C)C1=O
< -6.50	CC(C)C[C@@H]1NC(=O)[C@H]([C@@H](C)O)N(C)C(=O)[C@H]2CCCN2C(=O)[C@H](CC(C)C)NC(=O)[C@H]([C@@H](C)O)N(C)C(=O)[C@H](CC(C)C)NC(=O)[C@H](C)N(C)C(=O)[C@H]2CCCN2C(=O)[C@H](CC(C)C)NC(=O)[C@H]([C@@H](C)O)N(C)C1=O
-6.50	CC(C)C[C@@H]1NC(=O)[C@H](C)N(C)C(=O)[C@H]2CCCN2C(=O)[C@H](CC(C)C)NC(=O)[C@H](C)N(C)C(=O)[C@H](CC(C)C)NC(=O)[C@H](C)N(C)C(=O)[C@H]2CCCN2C(=O)[C@H]([C@@H](C)O)NC(=O)[C@H](C)N(C)C1=O
-4.30	CC(C)C[C@@H]1NC(=O)[C@H](C)N(C)C(=O)[C@H](CC(C)C)NC(=O)[C@H](C(C)C)N(C)C(=O)[C@H]2CCCN2C(=O)[C@H](CC(C)C)NC(=O)[C@H](C)N(C)C(=O)[C@H](CC(C)C)NC(=O)[C@H](C(C)C)N(C)C(=O)[C@@H](C)N(C)C1=O
-3.90	CC(C)C[C@@H]1NC(=O)[C@H](Cc2ccccc2)N(C)C(=O)[C@H]2CCCN2C(=O)[C@H](CC(C)C)NC(=O)[C@H](C)N(C)C(=O)[C@H](CC(C)C)NC(=O)[C@H](Cc2ccccc2)N(C)C(=O)[C@H]2CCCN2C(=O)[C@H]([C@@H](C)O)NC(=O)[C@H](C)N(C)C1=O
-5.90	CC(C)C[C@@H]1NC(=O)[C@H](C)N(C)C(=O)[C@H]2CCCN2C(=O)[C@H](CC(C)C)NC(=O)[C@H](C)N(C)C(=O)[C@H]([C@@H](C)O)NC(=O)[C@H](C)N(C)C(=O)[C@H]2CCCN2C(=O)[C@H](CC(C)C)NC(=O)[C@H](C)N(C)C1=O
-4.30	CC(C)C[C@@H]1NC(=O)[C@H]([C@@H](C)O)N(C)C(=O)[C@H]2CCCN2C(=O)[C@H](CC(C)C)NC(=O)[C@H](C)N(C)C(=O)[C@H](CC(C)C)NC(=O)[C@H](Cc2ccccc2)N(C)C(=O)[C@H]2CCCN2C(=O)[C@H](CC(C)C)NC(=O)[C@H](C)N(C)C1=O
-4.40	CC(C)C[C@@H]1NC(=O)[C@H](C(C)C)N(C)C(=O)[C@H]2CCCN2C(=O)[C@H](CC(C)C)NC(=O)[C@H](C)N(C)C(=O)[C@H](CC(C)C)NC(=O)[C@H](C(C)C)N(C)C(=O)[C@H]2CCCN2C(=O)[C@H](CC(C)C)NC(=O)[C@H](C)N(C)C1=O
-4.00	CC(C)C[C@@H]1NC(=O)[C@H](C)N(C)C(=O)[C@H](CC(C)C)NC(=O)[C@H](C)N(C)C(=O)[C@@H](C)N(C)C(=O)[C@H](CC(C)C)NC(=O)[C@H](C)N(C)C(=O)[C@H](CC(C)C)NC(=O)[C@H](C)N(C)C(=O)[C@@H](C)N(C)C1=O
< -6.50	CC(C)C[C@@H]1NC(=O)[C@H](C)N(C)C(=O)[C@H]2CCCN2C(=O)[C@H](CC(C)C)NC(=O)[C@H](C)N(C)C(=O)[C@H](CC(C)C)NC(=O)[C@H]([C@@H](C)O)N(C)C(=O)[C@H]2CCCN2C(=O)[C@H](CC(C)C)NC(=O)[C@H]([C@@H](C)O)N(C)C1=O
-4.80	CC(C)C[C@@H]1NC(=O)[C@H](C)N(C)C(=O)[C@H](CC(C)C)NC(=O)[C@H](C(C)C)N(C)C(=O)[C@@H](C)N(C)C(=O)[C@H](CC(C)C)NC(=O)[C@H](C)N(C)C(=O)[C@H](CC(C)C)NC(=O)[C@H](C(C)C)N(C)C(=O)[C@@H](C)N(C)C1=O
-5.90	CC(C)C[C@@H]1NC(=O)[C@H](C)N(C)C(=O)[C@H](CC(C)C)NC(=O)[C@H](Cc2ccccc2)N(C)C(=O)[C@@H](C)N(C)C(=O)[C@H](CC(C)C)NC(=O)[C@H](C)N(C)C(=O)[C@H](CC(C)C)NC(=O)[C@H](Cc2ccccc2)N(C)C(=O)[C@@H](C)N(C)C1=O
< -6.50	CC(C)C[C@@H]1NC(=O)[C@H](C)N(C)C(=O)[C@H]2CCCN2C(=O)[C@H](CC(C)C)NC(=O)[C@H]([C@@H](C)O)N(C)C(=O)[C@H](CC(C)C)NC(=O)[C@H](C)N(C)C(=O)[C@H]2CCCN2C(=O)[C@H](CC(C)C)NC(=O)[C@H]([C@@H](C)O)N(C)C1=O
< -6.90	CC(C)C[C@@H]1NC(=O)[C@H]([C@@H](C)O)N(C)C(=O)[C@H]2C[C@H](O)CN2C(=O)[C@H](CC(C)C)NC(=O)[C@H](C)N(C)C(=O)[C@H](CC(C)C)NC(=O)[C@H](Cc2ccccc2)N(C)C(=O)[C@H]2C[C@H](O)CN2C(=O)[C@H](CC(C)C)NC(=O)[C@H](C)N(C)C1=O

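Lipid, pH, incubation time, direction and concentration are not recorded in the data file. Other peptides of the study may be missing here. Peptides that the database sets to -10, its floor, are left out.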